Results as given in ChEMBL document CHEMBL3862037 (J Med Chem, 2016).

Sequences of proteins named here, by UniProt entry; tags and fusion partners are left off.
UniProt P31652, whole entry: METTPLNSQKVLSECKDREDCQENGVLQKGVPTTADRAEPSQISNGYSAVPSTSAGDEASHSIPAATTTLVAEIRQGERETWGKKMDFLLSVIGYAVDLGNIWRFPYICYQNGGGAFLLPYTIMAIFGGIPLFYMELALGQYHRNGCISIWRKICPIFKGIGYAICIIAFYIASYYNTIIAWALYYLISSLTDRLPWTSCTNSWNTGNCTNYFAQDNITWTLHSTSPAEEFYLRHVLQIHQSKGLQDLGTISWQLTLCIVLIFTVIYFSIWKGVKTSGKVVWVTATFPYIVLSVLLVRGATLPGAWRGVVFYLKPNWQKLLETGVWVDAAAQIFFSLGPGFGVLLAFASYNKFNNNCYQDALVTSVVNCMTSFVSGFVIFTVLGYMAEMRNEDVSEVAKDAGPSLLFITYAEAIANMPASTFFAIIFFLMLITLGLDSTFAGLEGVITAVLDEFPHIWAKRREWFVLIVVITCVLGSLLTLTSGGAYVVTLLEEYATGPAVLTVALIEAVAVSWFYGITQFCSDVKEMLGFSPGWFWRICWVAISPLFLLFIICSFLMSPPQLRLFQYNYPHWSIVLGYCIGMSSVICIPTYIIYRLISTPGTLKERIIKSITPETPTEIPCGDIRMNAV

Columns and labels:
Rattus norvegicus [1] = species: Rattus norvegicus; test: Selectivity index, ratio of Ki for NET in Sprague-Dawley rat frontal cortex membranes to Ki for DAT in Sprague-Dawley rat brain membranes; type: cell membranes
Rattus norvegicus [2] = species: Rattus norvegicus; test: Selectivity index, ratio of Ki for SERT in Sprague-Dawley rat brain stem membranes to Ki for DAT in Sprague-Dawley rat brain membranes; type: cell membranes
[3] = biological target: Sodium-dependent serotonin transporter (Rattus norvegicus) (UniProt P31652); test: Displacement of [3H]citalopram from SERT in Sprague-Dawley rat brain stem membranes incubated for 60 mins at 100 uM by radioligand binding assay; type: tissue-based

Row | Compound | Ratio Ki (Rattus norvegicus [1]) | Ratio Ki (Rattus norvegicus [2]) | inhibition [3] [%]
1 | [O-][S+](CCN1CCN(CCCc2ccccc2)CC1)C(c1ccc(F)cc1)c1ccc(F)cc1 (configuration not stated) | > 100 | > 100 | –
2 | O=C(CSC(c1ccccc1)c1ccccc1)N1CCN(CCCc2ccccc2)CC1 | > 100 | > 100 | –
3 | OC(Cc1ccccc1)CN1CCN(CCSC(c2ccccc2)c2ccccc2)CC1 (configuration not stated) | > 100 | > 100 | –
4 | CCCCN1C2CCC1CC(OC(c1ccc(F)cc1)c1ccc(F)cc1)C2 (configuration not stated) | – | – | < 50
